From patent US9034863B2, “Compositions and methods for inhibiting entry of a hepatic virus” (The Board of Trustees of the University of Illinois, priority 2008, dated 2015)

Tested on: HCV
Assay: Chronic HCV infection treated with IFN-β and ezetimibe, weekly RT-qPCR for 8 weeks
Assay type: cell-based, Hepatitis C virus (HCV)
Settings: 20 U/ml, week 3 to week 8, vs mock treated
Procedure: Similar studies were carried out with IFN-β alone (20 U/ml), or ezetimibe and IFN-β in combination (a combination of either 15 or 30 μM ezetimibe with 20 U/ml IFN-β). Intracellular RNA was collected from triplicate wells weekly for 8 weeks post-treatment and HCV RNA was quantified by RT-qPCR. […] Importantly, however, a synergistic effect was observed when IFN-β was used in combination with ezetimibe at concentrations of 15 or 30 μM. […] It was confirmed that the inhibition observed was not a consequence of treatment-induced cytotoxicity.

B1: IFN-β: Recombinant human IFN-β, a type I interferon (protein, UniProt P01574 22-187, looked up)
Interferon beta: MSYNLLGFLQRSSNFQCQKLLWQLNGRLEYCLKDRMNFDIPEEIKQLQQFQKEDAALTIYEMLQNIFAIFRQDSSSTGWNETIVENLLANVYHQINHLKTVLEEKLEKEDFTRGKLMSSLHLKRYYGRILHYLKAKEYSHCAWTIVRVEILRNFYFINRLTGYLRN
In the case of B1, the “reduction of intracellular HCV RNA levels” value is reported as “approximately 100 fold”.
